# According to PubChem BioAssay AID1439 (NMMLSC, 2008):
# The chains behind the UniProt entries cited, without tags or fusion partners.
# UniProt P09471, whole entry, looked up: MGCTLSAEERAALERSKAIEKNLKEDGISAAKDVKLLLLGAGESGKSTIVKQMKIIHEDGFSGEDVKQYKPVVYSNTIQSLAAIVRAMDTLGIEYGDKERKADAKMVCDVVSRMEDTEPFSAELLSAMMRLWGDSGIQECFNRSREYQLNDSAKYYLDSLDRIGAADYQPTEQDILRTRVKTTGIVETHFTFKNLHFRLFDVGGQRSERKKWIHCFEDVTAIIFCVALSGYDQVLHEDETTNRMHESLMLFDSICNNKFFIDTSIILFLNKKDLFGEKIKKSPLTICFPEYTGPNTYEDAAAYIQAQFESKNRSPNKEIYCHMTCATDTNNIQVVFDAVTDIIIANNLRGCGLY
# This is a selection; strong and weak results do not stand in their true shares. Records with an inconclusive call do not appear. The source made the active and inactive calls. Rule as the data show it: active = binding response below about 49% or above about 150%; inconclusive = no clear call, values can overlap the other calls; inactive = in between.
# Target: Guanine nucleotide-binding protein G(o) subunit alpha (Homo sapiens) (UniProt P09471)
# Test: compounds changing RGS7 association with Galphao – biochemical, multiplexed bead flow cytometry, primary screen (AID 1439);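 also: fluorescent Galphao held in activated GDP-AlF4 state binding bead-coupled RGS7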
# Conditions: at 10 µM, actives lie on both sides
row,SMILES,binding response (% of control)
1,Cc1cccc(OCC(=O)OC2CN3CCC2CC3)c1 (centres undefined),inactive: 95.6%
2,COc1cc(C(=O)NCC2(N3CCOCC3)CCCCC2)cc(Cl)c1OC(C)C,inactive: 104%
3,COc1cc(C2NCCC3(OCCO3)C2(C)C)cc(OC)c1OC (centres undefined),inactive: 119%
4,CCOP(=O)(Nc1cccc2ccccc12)OCC,inactive: 101%
5,Cc1ccc(NCCc2c([N+](=O)[O-])cc([N+](=O)[O-])cc2[N+](=O)[O-])cc1,inactive: 88.9%
6,CCOP1(=S)c2c(C)nn(CCC#N)c2N=C(c2ccccc2F)N1C (centres undefined),inactive: 101%
7,O=P(Nc1nccs1)(Oc1ccccc1)Oc1ccccc1,inactive: 91.8%
8,O=P(Nc1nccs1)(c1ccccc1)c1nc2ccccc2s1 (centres undefined),inactive: 103%
9,CCOP1(=S)c2c(C)nn(CCC#N)c2N=C(c2ccc(F)cc2)N1C (centres undefined),inactive: 103%
10,O=[N+]([O-])c1ccc2c(c1)nnn2O,inactive: 108%
11,CN(C)C1(CNC(=O)c2ccc(S(C)(=O)=O)cc2)CCCCC1,inactive: 99.6%
12,Cc1nn(-c2ccccc2)c2c1P(=O)(N1CCOCC1)N(C)C(c1ccccc1)=N2 (centres undefined),inactive: 105%
13,CC1CCC(C(C)C)C(OP(=O)(Nc2ccccn2)c2ccccc2)C1 (centres undefined),inactive: 97.9%
14,Cc1ccc(OCC(=O)OC2CN3CCC2CC3)cc1 (centres undefined),inactive: 99.8%
15,O=P1(Nc2ccc(Br)cn2)COc2ccccc2OC1,inactive: 103%
16,O=P1(Nc2ncccn2)COc2ccccc2OC1,inactive: 99.8%
17,Clc1n[nH]nc1-c1nn[nH][15n]1,inactive: 99.1%
18,O=P1(Nc2ccccn2)COc2ccccc2OC1,inactive: 101%
19,CC(C)/C=N\N=C(\N)N[N+](=O)[O-],inactive: 90.7%
20,CN(C(=O)Cc1ccc(Cl)c(Cl)c1)[C@@H]1CCCC[C@H]1N1CCCC1,inactive: 94.2%
21,O=C(COc1ccccc1)OC1CN2CCC1CC2 (centres undefined),inactive: 99.6%
22,COP1(=S)c2c(C)nn(CCC#N)c2N=C(c2ccc(F)cc2)N1C (centres undefined),inactive: 97.6%
23,CCC(C)N(CC(C)C)C(=S)SC(NC(C)=O)C(Cl)(Cl)Cl (centres undefined),inactive: 102%
24,Cc1cc(SC(NC(=O)c2ccccc2)C(Cl)(Cl)Cl)nc(C(C)C)n1 (centres undefined),inactive: 105%
25,Cc1ccc2nc3c(c(C)c2c1)CC(C(Cl)Cl)S3 (centres undefined),inactive: 107%

row,SMILES,binding response (% of control)
1,CCN(CC)C(=S)SC(NC=O)C(Cl)(Cl)Cl (centres undefined),inactive: 99.1%
2,O=[N+]([O-])c1cc([N+](=O)[O-])c(-c2ccn[nH]2)s1,inactive: 99.3%
3,ClCCSc1nnc(-c2cccnc2)o1,inactive: 102%
4,COc1ccc2nc(NP(=O)(c3ccccc3)c3ccccc3)sc2c1,inactive: 100%
5,Cc1c2c(nc3ccccc13)SC(C(Cl)Cl)C2 (centres undefined),inactive: 100%
6,O=C(OC1CN2CCC1CC2)C12CC3CC(CC(C3)C1)C2 (centres undefined),inactive: 97.1%
7,Cc1cc(=O)[nH]c(N[N+](=O)[O-])n1,inactive: 109%
8,COc1ccc(N/C(=N/P(=O)(N2CCOCC2)N2CCOCC2)N2CCOCC2)cc1,inactive: 104%
9,CN1CCCC(OC(=O)C(c2ccccc2)c2ccccc2)C1 (centres undefined),inactive: 106%
10,Clc1ccc(Cl)c(NC2=NCC(CBr)S2)c1 (centres undefined),inactive: 107%
11,COc1ccccc1OP(=O)(Nc1ccc(C)cn1)Oc1ccccc1OC,inactive: 95.8%
12,Cc1ccc(N/C(=N/P(=O)(N2CCOCC2)N2CCOCC2)N2CCOCC2)cc1,inactive: 104%
13,NC(=O)c1cc([N+](=O)[O-])cc([N+](=O)[O-])c1N,inactive: 103%
14,Oc1ccccc1CNc1ccccn1,inactive: 104%
15,O=C(NC(Sc1ccncn1)C(Cl)(Cl)Cl)c1ccccc1 (centres undefined),inactive: 113%
16,Cc1c2non([O-])c-2c(C)[n+](=O)[n+]1[O-],inactive: 92.5%
17,CC(C)CC(=O)NC(Sc1ccc(Cl)cc1)C(Cl)(Cl)Cl (centres undefined),inactive: 97.8%
18,Cc1cc(SC(NC(=O)c2ccc(F)cc2)C(Cl)(Cl)Cl)ncn1 (centres undefined),inactive: 103%
19,CCOP(=O)(Nc1ccccc1)OCC,inactive: 102%
20,CCN(N=Nc1nonc1N)c1nonc1N,inactive: 97.1%
21,O=[N+]([O-])c1ncn(CCn2ncnc2[N+](=O)[O-])n1,inactive: 99.8%
22,CCc1nc2c(n1)c1c(non1O)c1c2no[n+]1[O-],inactive: 105%
23,O=[N+]([O-])c1cc([N+](=O)[O-])c(CCNc2ccccc2)c([N+](=O)[O-])c1,inactive: 93.2%
24,O=[N+]([O-])c1cccc2n[nH]nc12,inactive: 98.7%
25,CC(=O)N1C2C3N(C(C)=O)C1C1N(C(C)=O)C(C(N1C(C)=O)N3C(C)=O)N2C(C)=O,inactive: 102%

row,SMILES,binding response (% of control)
1,COc1ccc(C2=NCC(CBr)S2)cc1 (centres undefined),inactive: 107%
2,CC1CCN(C(=O)Oc2c(Cl)cc(Cl)c3cccnc23)CC1,inactive: 92.8%
3,CC(C)=N/N=C(\N)N[N+](=O)[O-],inactive: 104%
4,CN(C)C(=O)OCCc1n(C)cc[n+]1C,inactive: 98.1%
5,CCN(/C(=N/P(=O)(N1CCOCC1)N1CCOCC1)N1CCOCC1)c1ccc(OC)cc1,inactive: 99.4%
6,c1nnnn1CCn1cnnn1,inactive: 88.4%
7,CC(C)C(=O)NC(Sc1ccccc1)C(Cl)(Cl)Cl (centres undefined),inactive: 104%
8,O=P(Nc1nccs1)(c1ccccc1)c1ccccc1,inactive: 99%
9,O=P(Nc1ccccn1)(c1ccc(Br)cc1)c1ccc(Br)cc1,inactive: 96.4%
10,O=C(OC1CN2CCC1CC2)c1cccc(Cl)c1 (centres undefined),inactive: 91.9%
11,C(Cc1nn[nH]n1)Cc1nn[nH]n1,inactive: 99.4%
12,CC(=O)NC(SC(=S)N(C)C)C(Cl)(Cl)Cl (centres undefined),inactive: 105%
13,c1ccc(-c2nn[nH]n2)c(-c2nn[nH]n2)c1,inactive: 68.5%
14,CCOC(=O)NC(Sc1ccccc1)C(Cl)(Cl)Cl (centres undefined),inactive: 79.9%
15,CCNC(=S)/N=C(\N)N[N+](=O)[O-],inactive: 98%
16,O=c1c2cc([N+](=O)[O-])ccc2[nH]c2c([N+](=O)[O-])cc([N+](=O)[O-])cc12,inactive: 96%
17,CCC(=O)N1C2C3N(C(=O)CC)C1C1N(C(=O)CC)C(C(N1C(=O)CC)N3C(=O)CC)N2C(=O)CC,inactive: 110%
18,COC(=O)c1cc2c(s1)N=C(c1ccccc1)N(C)P2(=O)N1CCOCC1 (centres undefined),inactive: 99.9%
19,Cc1ccc(OP(=O)(Nc2ccccn2)Oc2ccc(C)cc2)cc1,inactive: 102%
20,CC(=O)NC(SC(=S)N(CC(C)C)CC(C)C)C(Cl)(Cl)Cl (centres undefined),inactive: 108%
21,CC(C)(C)C(=O)NC(Sc1ccccc1)C(Cl)(Cl)Cl (centres undefined),inactive: 91%
22,O=P1(Nc2nc3ccc(Cl)cc3s2)COc2ccccc2O1 (centres undefined),inactive: 102%
23,CCOc1ccc(C2=NCC(CBr)S2)cc1 (centres undefined),inactive: 108%
24,CC(=O)Nc1ccc(Oc2c([N+](=O)[O-])cc([N+](=O)[O-])cc2[N+](=O)[O-])cc1,inactive: 97.3%
